Laboratory results taken from patent US20110009335A1, “Anticancer Treatments” (priority 2008, published 2011).

Experiments:
[1] = system: CAKI-1 human renal tumor xenograft; assay: Aplidine with sorafenib, CAKI-1 xenograft in athymic nude mice (Example 1); type: in vivo
Experimental: (§1) Female athymic nude mice (Harlan Sprague Dawley, Madison, Wis.) were utilized for all experiments. Mice were implanted with tumor fragments or a cell suspension when mice were 5 weeks of age. Animals were housed in ventilated rack caging, 5 mice per cage, with food and water ad libitum. The mice were acclimated for 1 week prior to being implanted with tumor fragments or cell suspensions.
Tumor measurements were determined by using Vernier calipers. The formula to calculate volume for a prolate ellipsoid was used to estimate tumor volume (mm^3) from 2-dimensional tumor measurements: Tumor volume (mm^3)=[L×W^2]÷2, where L is the length and it is the longest diameter in mm, and W is the width and it is the shortest diameter in mm of a tumor. Assuming unit density, volume was converted to weight (i.e., 1 mm^3=1 mg).
Body weights were recorded on treatment days and when tumor sizes were measured. In those days wherein the two drugs were administered the same day, the combination therapy groups were treated by co-administering the two drugs at the same time, with no attempt to sequence the treatments.
Aplidine was provided in the form of vials of lyophilized aplidine powder which was reconstituted in Cremophor EL/ethanol/water (CEW) 15/15/70 to a concentration of 0.5 mg/ml. […]
(§2) Tumor size measurements were recorded twice weekly from the treatment initiation until the termination of the study.
(§3) Mean, standard deviation and standard error of the mean were determined for tumor volume for all animal groups at all assessments. […]
Determine the % of tumor growth inhibition, as 100−% T/C, for each of the drugs administered as monotherapy at the doses used in the combinations. % T/C was obtained by comparing the mean tumor weight in the treatment groups (T) to the mean tumor weight in the control group (C) (T/C×100%). • 2. […] This “expected response” was subtracted from the % of tumor growth inhibition determined for the combination therapy group: • a. […] If the resulting number was close to zero, the effect of combining the two drugs was determined as additive. • c.

[2] = system: A498 human renal tumor xenograft; assay: Aplidine with sorafenib, A498 xenograft in athymic nude mice (Example 1); type: in vivo
Experimental: as §1
A498 cells were grown in MEM, 2 mM L-glutamine and 10% FBS. Cells from in vitro passage 4-20 were implanted SC into study mice: 5×10^6 cells/mouse in 0.2 ml 50% Matrigel/50% medium without antibiotics or serum, using a 23 G needle and 1 cc syringe. Matrigel is a biological extracellular matrix that is liquid at 4° C. and solid at 37° C., and it promotes tumor growth by maintaining the cells in close association in a localized area. Bacterial cultures were performed on aliquots of the cells prepared for implantation.
Tumor measurements were determined by using Vernier calipers. […]
Body weights were recorded on treatment days and when tumor sizes were measured. […]
as §2, §3

SMILES: CNC(=O)c1cc(Oc2ccc(NC(=O)Nc3ccc(Cl)c(C(F)(F)F)c3)cc2)ccn1 [sorafenib]
- antitumor activity as single agent (monotherapy) ([1]; doses and schedules tested): inactive
- % Inhibition G5 ([1]; sorafenib 30 mg/kg/day, one value per day, days 13-49): 2.0%
- % Inhibition G4 ([1]; sorafenib 60 mg/kg/day, one value per day, days 13-49): −10.2%
- antitumor activity as single agent (monotherapy) ([2]; doses and schedules tested): did not reach the NCI criteria for activity
- % Inhibition G5 ([2]; sorafenib 30 mg/kg/day, one value per day, days 26-61): 1.3%
